Experimental data from published antibiotic growth screens (doi:10.1038/s41589-023-01349-8).
The list shows a part of the results.

system: A. baumannii ATCC 17978; experiment: relative growth (fraction of control); higher = less inhibition; details: 50 µM

Compared with CNC(=O)C(=O)Nc1cc(Cl)ccc1C#N, O=C(NCCO)c1cccc(C(=O)NCCO)c1 is higher in relative growth: 0.959 for the first, 1.01 for the second.

Compared with Cn1cnc(S(=O)(=O)N2C[C@@H](O)COC[C@@H]3O[C@@H](CC(=O)NC4CCC4)CC[C@H]32)c1, O=C(C[C@H]1CC[C@@H]2[C@H](COC[C@H](O)CN2C(=O)Nc2cc(Cl)cc(Cl)c2)O1)N1CCOCC1 is higher in relative growth: 0.949 for the first, 0.968 for the second.

First: Cn1c(=O)c2c(ncn2CC(O)CO)n(C)c1=O (stereo unspecified)
Second: COc1nn(C)cc1C(=O)N1CCN(C)CC1
The relative growth of the first is higher: 1.13 for the first, 0.986 for the second.

Compared with CC(C)c1nc2cc3sc(C(C)C)nc3cc2s1, C[C@H](CO)N1C[C@H](C)[C@@H](CN(C)S(=O)(=O)c2ccc3ccccc3c2)OCc2cnnn2CCCC1=O is lower in relative growth: 1.21 for the first, 0.974 for the second.

Going from O=C(C[C@H]1CC[C@@H](NC(=O)c2cccnc2)[C@@H](CO)O1)NCCN1CCCCC1 to O=C(C[C@H]1CC[C@@H](NS(=O)(=O)c2ccccc2F)[C@H](CO)O1)NCCCN1CCOCC1, the relative growth falls from 1.04 to 0.849.

Going from COc1ccc2c(c1OC)C(=O)O[C@H]2[C@H]1c2c(cc3c(c2OC)OCO3)CCN1C.Cl to COc1ccc2c(c1)OCC(Cc1ccc(OC)c(OC)c1)C2=O (stereo unspecified), the relative growth rises from 0.898 to 1.03.

Going from CC(=O)O.Cc1c(-c2ccc(O)cc2)n(Cc2ccc(OCCN3CCCCCC3)cc2)c2ccc(O)cc12 to CC(C)(C)OC(=O)CC[C@@]12N=C(c3ccc(OCCCO)cc3)O[C@@H]1c1ccccc1CN(C(=O)c1ccccc1)C2=O, the relative growth rises from 0.807 to 1.06.

First: COc1cccc(NC(=O)N[C@@H]2C=C[C@H](CC(=O)N3CCOCC3)O[C@H]2CO)c1
Second: COc1cccc(NC(=O)N[C@H]2C=C[C@H](CC(=O)N3CCN(C)CC3)O[C@@H]2CO)c1
The relative growth of the first is lower: 0.893 for the first, 0.952 for the second.

Going from CC(C)(Oc1ccc(C2CC2(Cl)Cl)cc1)C(=O)O (stereo unspecified) to COc1ccc2c(c1)OC(C)(C)C[C@@H]2N, the relative growth falls from 1.32 to 1.02.

First: C#CCN([C@H](/C=C/C1CC1)[C@@H](O)CCn1cc(-c2ccc(C(=O)NO)s2)nn1)[C@@H](Cc1ccccc1)C(=O)OC
Second: C=CCC[C@@H](Cc1ccc(F)cc1)C(=O)OC[C@@H](NC(=O)[C@@H](CC=C)CC(=O)N[C@@H](CO)Cc1ccccc1)C(C)(C)C
The relative growth of the first is higher: 1.13 for the first, 0.829 for the second.

First: O=C(CN1CCOCC1)N[C@H]1CC[C@H](CCNC(=O)C2CCCCC2)O[C@@H]1CO
Second: O=C(N[C@@H]1CC[C@@H](CCNS(=O)(=O)c2ccc(F)cc2)O[C@@H]1CO)C1CC1
The relative growth of the first is higher: 1.03 for the first, 1.01 for the second.

Compared with COc1cccc(S(=O)(=O)N[C@@H]2C=C[C@H](CC(=O)NC3CCC3)O[C@H]2CO)c1, COc1cccc(S(=O)(=O)N[C@H]2C=C[C@@H](CC(=O)NC3CCC3)O[C@H]2CO)c1 is lower in relative growth: 1.06 for the first, 1.03 for the second.

Going from N[C@H]1CS(=O)(=O)c2ccccc21 to CC[C@@H](CN)Cc1ccccc1, the relative growth falls from 1.11 to 1.02.

Compared with CNC[C@H](O)c1cccc(O)c1.Cl, NC[C@H](O)c1ccc(O)c(O)c1.O=C(O)[C@H](O)[C@@H](O)C(=O)O is lower in relative growth: 1.15 for the first, 1.09 for the second.

Going from O=C(C[C@@H]1CC[C@H]2[C@@H](COC[C@@H](O)CN2C(=O)c2ccccc2)O1)N1CCOCC1 to CCC(=O)Nc1ccc2c(c1)OC[C@H](C)N(C(=O)CN1CCOCC1)C[C@@H](C)[C@H](OC)CN(C)C2=O, the relative growth rises from 0.998 to 1.08.

First: Cl.O=C(Nc1ccccc1)OCC(CN1CCCCC1)OC(=O)Nc1ccccc1 (stereo unspecified)
Second: NCCN1C(=O)c2[nH]nc(-c3ccccc3)c2[C@H]1c1ccccc1
The relative growth of the first is lower: 0.749 for the first, 0.966 for the second.

First: C[C@H]1CN([C@@H](C)CO)C(=O)CCCn2nncc2CO[C@@H]1CN(C)C(=O)Nc1cccc2ccccc12
Second: Cc1ccc(S(=O)(=O)N(C)C[C@@H]2Oc3c(NC(=O)Nc4cccc5ccccc45)cccc3C(=O)N([C@H](C)CO)C[C@H]2C)cc1
The relative growth of the first is lower: 0.918 for the first, 1.01 for the second.

Going from O=c1cc(Cl)[nH]c(=O)[nH]1 to CCCNS(=O)(=O)c1c[nH]c(C(=O)OC)c1, the relative growth rises from 1.01 to 1.1.

Going from CC/N=C1\S[C@H](C(N)=O)CC(=O)N1CC to CC(C)NC(=O)N[C@@H]1CC[C@@H](CCN)O[C@H]1CO, the relative growth falls from 1.05 to 0.941.

Going from CO[C@@H]1CN(C)C(=O)c2cc(NS(C)(=O)=O)ccc2OC[C@@H](C)N(C(=O)C2CCCCC2)C[C@@H]1C to C[C@H](CO)N1C[C@H](C)[C@H](CN(C)Cc2cncnc2)Oc2cc(C#CC3CCCC3)ccc2S1(=O)=O, the relative growth falls from 0.986 to 0.773.

First: C[C@@]1(C(=O)O)CCCC[C@@H]1N
Second: CCC(=O)Oc1ccc2c(c1)CCC1C2CC[C@@]2(C)C1C[C@@H](OC(=O)CC)[C@@H]2OC(=O)CC (stereo partly specified)
The relative growth of the first is lower: 0.92 for the first, 1.1 for the second.

Going from O=C1C(=CNC(CO)(CO)CO)C(=O)c2ccccc21 to O=c1cc(-c2ccccc2)oc2ccc(O)cc12, the relative growth falls from 0.974 to 0.899.

Compared with C[C@@H]1CN([C@@H](C)CO)S(=O)(=O)c2ccc(/C=C/c3ccccc3)cc2O[C@H]1CN(C)C(=O)Nc1cc(F)ccc1F, C[C@@H]1CN([C@@H](C)CO)S(=O)(=O)c2ccc(Br)cc2O[C@H]1CN(C)C(=O)c1cnccn1 is higher in relative growth: 1.02 for the first, 1.1 for the second.

First: c1ccc(-c2nc3ccccc3o2)nc1
Second: Oc1ccccc1/N=C/c1ccncc1
The relative growth of the first is higher: 0.901 for the first, 0.503 for the second.

Compared with Clc1ccc(/N=C/c2ccc(Br)o2)cc1Cl, Cc1ccccc1S(=O)(=O)N(C)C[C@@H]1Oc2ccc(NC(=O)Nc3ccc(Cl)c(Cl)c3)cc2CC(=O)N([C@@H](C)CO)C[C@@H]1C is higher in relative growth: 1.06 for the first, 1.15 for the second.

Compared with O=C(c1ccc(F)cc1)N1c2ccccc2C=Cc2ccccc21, COc1ccc(C(=O)Nc2ccc(CN3C(=O)[C@]4(O[C@H](CC(=O)N5Cc6ccccc6C[C@H]5CO)[C@@H]([Si](C)(C)c5ccc(OC)cc5)[C@@H]4C)c4ccccc43)cc2)cc1 is higher in relative growth: 0.924 for the first, 0.979 for the second.

Going from Nc1ccc(S(N)(=O)=O)cc1 to C=CC[C@H](CC(=O)N(CCO)Cc1ccccc1)C(=O)NCCOC(=O)[C@H](CC=C)CC(=O)OC(C)(C)C, the relative growth falls from 0.993 to 0.731.

Going from CC1(C)C2CC[C@@]3(C)C4CC[C@@]5(C)CC[C@](C)(C(=O)[O-])C[C@H]5C4=CC(=O)C3[C@@]2(C)CC[C@@H]1O[C@@H]1O[C@H](C(=O)[O-])[C@@H](O[C@@H]2O[C@H](C(=O)[O-])[C@@H](O)[C@H](O)[C@H]2O)[C@H](O)[C@H]1O.[NH4+].[NH4+].[NH4+] (stereo partly specified) to C[C@@H]1Cn2nncc2CO1, the relative growth rises from 1.02 to 1.1.
